Source: patent US11697772B2, “Hydrotropic composition and its uses” (KEMIRA OYJ, priority 2017, dated 2023)

Assay: Critical micelle concentration by optical pendant drop method (surface tension)
Format: physicochemical
Conditions: in water, superscript L logarithmic fitting, S sigmoidal fitting

In the case of choline decanoate [Ch Decanoate], the “CMC (critical micelle concentration)” value is reported as 23 ± 4^L mM and the “CMC (critical micelle concentration)” value (listed as Ch decanoate) is reported as 23 ± 4 mM.
